The list shows a part of the results, in another mix than the full data. Some salts and complexes are drawn in separate pieces, as the source files them; their charges need not balance. Calls of active or inactive are those of the source.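 Rule for the calls: active = mean activation of at least 10% of the iron chelator positive control signal, with at least half of replicates also reaching 10%; inconclusive = mean and replicate majority disagree about reaching 10%; inactive = mean and most replicates under 10%.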
Test: HIF pathway transcriptional activators, primary screen, cell-based, U2OS HRE-luciferase, luminescence (AID 1910)
Settings: U2OS HRE-luciferase reporter, hits give high values, screened at 7.5 µM (by protocol), normalized: DMSO 0%, desferrioxamine 100%

| Structure (SMILES) | activation |
| --- | --- |
| O=C(OC1CN2CCC1CC2)c1ccc([N+](=O)[O-])cc1 (stereo unspecified) | inactive: -1.28% |
| O=C(OCCN1CCN(CCOCc2ccccc2)CC1)C(O)(c1ccccc1)c1ccccc1 | inactive: -0.162% |
| COc1ccc2c(c1O)-c1c(O)c(OC)cc3c1[C@H](C2)[N+](C)(C)CC3.O=[N+]([O-])c1cc([N+](=O)[O-])c([O-])c([N+](=O)[O-])c1[O-] | inactive: -1.37% |
| CP(=O)(Nc1ccccc1F)Oc1ccccc1 (stereo unspecified) | inactive: -0.101% |
| CC(C)c1ccc(OP(C)(=O)Nc2ccc(SC(F)(F)F)cc2)cc1 (stereo unspecified) | inactive: -0.0382% |
| CCN(CC)CCCOC(=O)C(O)(c1ccccc1)C1CCCCC1 (stereo unspecified) | inactive: 0.325% |
| CP(=O)(Nc1ccccc1)Oc1ccc(F)cc1 (stereo unspecified) | inactive: -0.258% |
| CCCCCOc1ccc(NP(C)(=O)Oc2ccc(Cl)cc2Cl)cc1 (stereo unspecified) | inactive: -0.0462% |
| O=[N+]([O-])c1cc([N+](=O)[O-])c(OC2CCCCC2O)c([N+](=O)[O-])c1 (stereo unspecified) | inactive: -0.447% |
| CCOC(=O)c1ccc(NP(C)(=O)Oc2ccc(F)cc2)cc1 (stereo unspecified) | inactive: -0.271% |
| COc1ccc(OP(C)(=O)Nc2ccc(SC(F)(F)F)cc2)cc1 (stereo unspecified) | inactive: 0.613% |
| O=[N+]([O-])c1ccc(OP2(=O)COCCO2)cc1 (stereo unspecified) | inactive: 0.0133% |
| O=[N+]([O-])c1cc([N+](=O)[O-])c(NCC2CCS(=O)(=O)C2)c([N+](=O)[O-])c1 (stereo unspecified) | inactive: -0.283% |
| Cc1cc(-c2cccc3ccccc23)c(C)cn1.O=[N+]([O-])c1cc([N+](=O)[O-])c(O)c([N+](=O)[O-])c1 | inactive: 0.107% |
| COc1ccc(OP(C)(=O)Nc2cccc(Br)c2)cc1 (stereo unspecified) | inactive: -0.418% |
| CN(C)CCOC(=O)C(O)(c1ccccc1)C1CCCCC1 (stereo unspecified) | inactive: -0.0833% |
| COc1ccc(NP(C)(=O)Oc2ccccc2OC)cc1 (stereo unspecified) | inactive: 0.302% |
| CP(=O)(Nc1ccc2c(c1)OCCO2)Oc1ccccc1 (stereo unspecified) | inactive: -0.196% |
| Cc1ccccc1NP(C)(=O)Nc1ccccc1C | inactive: -0.572% |
| CP(=O)(Nc1ccc(SC(F)(F)F)cc1)Oc1ccc(F)cc1 (stereo unspecified) | inactive: -0.61% |
| CCOP(C)(=S)SCC(=O)NC(C)(CC)C(=O)O (stereo unspecified) | inactive: -0.192% |

| Structure (SMILES) | activation |
| --- | --- |
| CC(C)(C)c1ccc(OP(C)(=O)O)cc1 | inactive: -0.06% |
| COc1ccccc1OP(C)(=O)Nc1ccccc1Br (stereo unspecified) | inactive: -1.03% |
| CP(=O)(Nc1ccc(Cl)cc1)Oc1ccc(F)cc1 (stereo unspecified) | inactive: -0.255% |
| CN(C)C(=O)c1c([N+](=O)[O-])cc([N+](=O)[O-])cc1[N+](=O)[O-] | inactive: -0.396% |
| COc1ccc(OP(C)(=O)Nc2ccc(Br)cc2)cc1 (stereo unspecified) | inactive: 1.68% |
| CCN(CC)CC(O)COC(=O)C(O)(c1ccccc1)C1CCCCC1 (stereo unspecified) | inactive: -0.423% |
| O=C(OCCCN1CCCC1)C(O)(c1ccccc1)C1CCCCC1 (stereo unspecified) | inactive: 0.464% |
| COc1ccccc1OP(C)(=O)Nc1c(C)n(C)n(-c2ccccc2)c1=O (stereo unspecified) | inactive: -0.165% |
| CCc1ccc(OP(C)(=O)Nc2cccnc2)cc1 (stereo unspecified) | inactive: 0.443% |
| CP(=O)(Oc1ccccc1)N1CCOC1=O (stereo unspecified) | inactive: 0.462% |
| Nc1ccc2c(ccc3cccnc32)n1.O=[N+]([O-])c1cc([N+](=O)[O-])c(O)c([N+](=O)[O-])c1 | inactive: 0.485% |
| CCOC(=O)c1ccc(NP(C)(=O)Oc2ccc(Cl)cc2)cc1 (stereo unspecified) | inactive: 0.066% |
| CP(=O)(OC12CC3CC(CC(C3)C1)C2)OC12CC3CC(CC(C3)C1)C2 | inactive: -0.854% |
| Cc1nc2ccc3ccccc3c2o1.O=[N+]([O-])c1cc([N+](=O)[O-])c(O)c([N+](=O)[O-])c1 | inactive: 1.03% |
| CP(=O)(OCCOc1ccccc1)OCCOc1ccccc1 | inactive: -0.265% |
| CP(=O)(Nc1ccc(Cl)cc1Cl)Oc1ccccc1 (stereo unspecified) | inactive: -0.0659% |
| Cc1cc(C)cc(OP(C)(=O)Nc2cccc(C(F)(F)F)c2)c1 (stereo unspecified) | inactive: -0.36% |
| COc1ccccc1OP(C)(=O)Nc1ccc(C)c(C)c1 (stereo unspecified) | inactive: -0.229% |
| COc1ccc(OP(C)(=O)Nc2ccccc2Br)cc1 (stereo unspecified) | inactive: -0.133% |
| Cc1c(NP(C)(=O)Oc2ccc(C(C)C)cc2)c(=O)n(-c2ccccc2)n1C (stereo unspecified) | inactive: -0.812% |
| COc1ccccc1OP(C)(=O)Nc1ccc(C)cc1C (stereo unspecified) | inactive: -0.168% |

| Structure (SMILES) | activation |
| --- | --- |
| CP(=O)(Nc1ccccn1)Oc1ccccc1 (stereo unspecified) | inactive: -0.169% |
| CCc1ccc(OP(C)(=O)O)cc1 | inactive: -0.29% |
| COc1ccccc1OP(C)(=O)Nc1ccc(Br)cc1 (stereo unspecified) | inactive: 0.25% |
| COc1ccc(OP(C)(=O)Nc2ccccn2)cc1 (stereo unspecified) | inactive: -0.212% |
| CCN(CC)CCCOC(=O)C(O)(c1ccccc1)c1ccccc1 | inactive: 0.105% |
| Cc1ccc(NP(C)(=O)Oc2ccccc2)c(C)c1 (stereo unspecified) | inactive: -31.8% |
| COc1ccccc1OP(C)(=O)Nc1ccc(C)cc1 (stereo unspecified) | inactive: -0.266% |
| CCOC(=O)c1ccc(NP(C)(=O)Oc2ccccc2)cc1 (stereo unspecified) | inactive: -0.689% |
| Cc1cc(C)cc(OP(C)(N)=O)c1 (stereo unspecified) | inactive: -0.136% |
| COc1ccc(OP(C)(=O)Nc2cccc(F)c2)cc1 (stereo unspecified) | inactive: -0.882% |
| COc1ccccc1OP(C)(=O)Nc1cc(Cl)ccc1C (stereo unspecified) | inactive: -0.509% |
| O=[N+]([O-])c1cc([N+](=O)[O-])c(Nc2cccnc2)c([N+](=O)[O-])c1 | inactive: 2.02% |
| O=[N+]([O-])c1ccc2c(c1)C=Nc1ccccc1O2 | inactive: -0.335% |
| Cc1cccc(C)c1OP(C)(N)=O (stereo unspecified) | inactive: 0.141% |
| CC(C)(C)c1ccc(OP(C)(=O)Nc2ccc(SC(F)(F)F)cc2)cc1 (stereo unspecified) | inactive: 0.0901% |
| CP(=S)(Nn1cnnc1)Oc1ccccc1 (stereo unspecified) | inactive: 0.0698% |
| CP(=O)(Nc1ccccc1Br)Oc1ccccc1 (stereo unspecified) | inactive: -0.895% |
| COc1ccccc1OP(C)(=O)Nc1ccccc1 (stereo unspecified) | inactive: -0.141% |
| CCOC(=O)c1ccc(NP(C)(=O)Oc2ccc(OC)cc2)cc1 (stereo unspecified) | inactive: -0.532% |

Reference: PubChem BioAssay AID1910 (Broad Institute, 2009)
